Values quoted from earlier work in US20170007610A1, “NOVEL HETEROBICYCLIC COMPOUNDS AS KAPPA OPIOID AGONISTS” (priority 2014, published 2017).

Chains of the proteins cited; added tags and fusions are not shown. Lines headed by an entry give the natural chain unless they say otherwise; changes in a name come on top.
UniProt P41145: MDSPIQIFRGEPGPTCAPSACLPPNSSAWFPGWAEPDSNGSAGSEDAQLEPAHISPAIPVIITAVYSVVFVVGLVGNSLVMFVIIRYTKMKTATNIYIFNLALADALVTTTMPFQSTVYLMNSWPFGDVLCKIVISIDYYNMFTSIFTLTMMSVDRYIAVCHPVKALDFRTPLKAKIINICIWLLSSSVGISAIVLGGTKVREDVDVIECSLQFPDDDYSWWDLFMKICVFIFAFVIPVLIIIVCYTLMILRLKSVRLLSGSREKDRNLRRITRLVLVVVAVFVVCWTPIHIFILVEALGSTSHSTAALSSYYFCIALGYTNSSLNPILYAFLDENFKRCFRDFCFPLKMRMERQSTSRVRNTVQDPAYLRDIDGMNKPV

Target: κ-opioid receptor (Homo sapiens, UniProt P41145)
Conditions: relative to U-50,488; cited from earlier work

CN(C(=O)Cc1ccc(Cl)c(Cl)c1)[C@H](CN1CCCC1)c1ccccc1
fold more potent than U-50,488 invitro: 146 fold
